In ChEMBL document CHEMBL1140479, “NO donors. Part 16: investigations on structure-activity relationships of organic mononitrates reveal 2-nitrooxyethylammoniumnitrate as a high potent vasodilator” (Bioorg Med Chem Lett, 2007) one finds pD2 data, which are given here for 1 compound.

This assay in a line: Vasodilatory effect in pig pulmonary artery assessed as inhibition of PGF2-alpha-induced contraction. The assay is classed as functional, tissue-based. The conditions noted are these: Sus scrofa. The essentials: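 Porcine lungs from slaughterhouse; small pulmonary artery branches cut into rings (2–3 mm long, 1.5–2 mm diameter), tension measured in organ baths. Rings precontracted with PGF2α; test compounds added cumulatively at contraction plateau (up to 1 mM), DMSO as solvent. Endothelium checked by 10 nM bradykinin relaxation; denuded rings by gentle rubbing, pretreated with 0.2 mM L-NAME. Potency expressed as pD2.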

Turning to `O=[N+]([O-])OCCBr`, the pD2 is 6.42.
